These results are taken from US11236106B2, “Cycloalkane-1,3-diamine derivative” (Daiichi Sankyo Company, Limited, priority 2018, dated 2022).

Holding throughout (assay): cells
Common to all, as to conditions: Homo sapiens

Assay [1] deals with MV-4-11 cells.
Assay [2] has as its system K562 cells.
Assay [3] relates to MOLM-13 cells.
Where [4] appears, read: MV4-11, 168 h, read-out: GI50, cell growth inhibitory activity, MV-4-11, day 7, MV-4-11 cells, cultured 7 days, assigned by order and values.
The mark [5] stands for this setting: K562, 168 h, read-out: GI50, cell growth inhibitory activity, K562, day 7.
[6] abbreviates: MOLM-13, 168 h, read-out: GI50, cell growth inhibitory activity, MOLM-13, day 7, MOLM-13 cells, cultured 7 days, assigned by order and values.
The mark [7] stands for this setting: MV4-11, 72 h, read-out: GI50, cell growth inhibitory activity, MV-4-11, day 3, MV-4-11 cells, cultured 3 days, assigned by order and values.
Where [8] appears, read: K562, 72 h, read-out: GI50, cell growth inhibitory activity, K562, day 3.
Where [9] appears, read: MOLM-13, 72 h, read-out: GI50, cell growth inhibitory activity, MOLM-13, day 3, MOLM-13 cells, cultured 3 days, assigned by order and values.

Each structure is given as a SMILES string. Structures can show the parent of a compound that is named as a salt. Where two headings read alike, the source gives them in different places.

In the case of `CNc1nc(N(C)[C@H]2C[C@@H](NCc3ccc(-c4cc(F)cc(OC)c4)cc3)C[C@H]2O)c2cc(CC(F)(F)F)sc2n1` [Example 75, (1R,2S,4R)-4-{[(3′-fluoro-5′-methoxy[1,1′-biphenyl]-4-yl)methyl}amino}-2-{methyl[2-(methylamino)-6-(2,2,2-trifluoroethyl)thieno[2,3-d]pyrimidin-4-yl]amino}cyclopentan-1ol hydrochloride], the results for the GI50 in assay [1] (setting [4]), in assay [2] (setting [5]) and in assay [3] (setting [6]) were 0.0571 µM, 1.47 µM and 0.194 µM, respectively.

Consider `COc1cc(-c2ccc(CN[C@H]3C[C@@H](O)[C@@H](N(C)c4ncnc5sc(CC(F)(F)F)cc45)C3)c(F)c2)cnc1OC` [Example 76, (1R,2S,4R)-4-({[4-(5,6-dimethoxypyridin-3-yl)-2-fluorophenyl]methyl}amino)-2-{methyl[6-(2,2,2-trifluoroethyl)thieno[2,3-d]pyrimidin-4-yl]amino}cyclopentan-1-ol hydrochloride], for which the GI50 in assay [1] (setting [7]) is 0.183 µM; in assay [1] (setting [4]), 0.0963 µM; in assay [2] (setting [8]), 4.8 µM; in assay [2] (setting [5]), 2.7 µM; in assay [3] (setting [9]), 1.7 µM; in assay [3] (setting [6]), 0.268 µM.

As to `COc1cc(-c2cnc(OC)c(OC)c2)ccc1CN[C@H]1C[C@@H](O)[C@@H](N(C)c2ncnc3sc(CC(F)(F)F)cc23)C1` [Example 77, (1R,2S,4R)-4-({[4-(5,6-dimethoxypyridin-3-yl)-2-methoxyphenyl]methyl}amino)-2-{methyl[6-(2,2,2-trifluoroethyl)thieno[2,3-d]pyrimidin-4-yl]amino}cyclopentan-1-ol hydrochloride], the GI50 was 0.35 µM in assay [1] (setting [7]); 0.16 µM in assay [1] (setting [4]); 2.6 µM in assay [2] (setting [8]); 1.62 µM in assay [2] (setting [5]); 1.17 µM in assay [3] (setting [9]); 0.501 µM in assay [3] (setting [6]).

Take `COc1cc(-c2ccc(CN[C@H]3C[C@@H](O)[C@@H](N(C)c4ncnc5sc(CC(F)(F)F)cc45)C3)c(C)c2)cnc1OC` [Example 78, (1R,2S,4R)-4-({[4-(5,6-dimethoxypyridin-3-yl)-2-methylphenyl]methyl}amino)-2-{methyl[6-(2,2,2-trifluoroethyl)thieno[2,3-d]pyrimidin-4-yl]amino}cyclopentan-1-ol hydrochloride]: the GI50 was 0.219 µM in assay [1] (setting [7]); 0.114 µM in assay [1] (setting [4]); 3.53 µM in assay [2] (setting [8]); 1.99 µM in assay [2] (setting [5]); 1.72 µM in assay [3] (setting [9]); 0.378 µM in assay [3] (setting [6]).

As for `CN(c1ncnc2sc(CC(F)(F)F)cc12)[C@H]1C[C@@H](NCc2ccc(-n3cnc4ccccc43)cc2)C[C@H]1O` [Example 79, (1R,2S,4R)-4-({[4-(1H-benzimidazol-yl)phenyl]methyl}amino)-2-{methyl[6-(2,2,2-trifluoroethyl)thieno[2,3-d]pyrimidin-4-yl]amino}cyclopentan-1-ol hydrochloride], the GI50 in assay [1] (setting [7]) turned out to be 0.313 µM; in assay [1] (setting [4]) it was 0.173 µM; in assay [2] (setting [8]) it was 4.34 µM; in assay [2] (setting [5]), 2.12 µM; in assay [3] (setting [9]), 1.64 µM; in assay [3] (setting [6]) it was 0.482 µM.

With `CCOc1cc(-c2ccc(CN[C@H]3C[C@@H](O)[C@@H](N(C)c4ncnc5sc(CC(F)(F)F)cc45)C3)cc2)cnc1OC` [Example 80, (1R,2S,4R)-4-({[4-(5-ethoxy-6-methoxypyridin-3-yl)phenyl]methyl}amino)-2-{methyl[6-(2,2,2-trifluoroethyl)thieno[2,3-d]pyrimidin-4-yl]amino}cyclopentan-1-ol hydrochloride], the GI50 came out at 0.434 µM in assay [1] (setting [7]); 0.246 µM in assay [1] (setting [4]); 2.79 µM in assay [2] (setting [8]); 2.16 µM in assay [2] (setting [5]); 1.88 µM in assay [3] (setting [9]); 0.705 µM in assay [3] (setting [6]).

Turning to `COc1nc(N(C)[C@H]2C[C@@H](NCc3ccc(-c4cnc(OC)c(OC)c4)cc3)C[C@H]2O)c2cc(CC(F)(F)F)sc2n1` [Example 81, (1R,2S,4R)-4-({[4-(5,6-dimethoxypyridin-3-yl)phenyl]methyl}amino)-2-{[2-methoxy-6-(2,2,2-trifluoroethyl)thieno[2,3-d]pyrimidin-4-yl](methyl)amino}cyclopentan-1-ol hydrochloride], the GI50 in assay [1] (setting [7]) was found to be 0.0544 µM; in assay [1] (setting [4]), 0.0246 µM; in assay [2] (setting [8]), 2.22 µM; in assay [2] (setting [5]) it was 1.61 µM; in assay [3] (setting [9]), 0.569 µM; in assay [3] (setting [6]), 0.0943 µM.

For `CNc1nc(N(C)[C@H]2C[C@@H](NCc3ccc(-c4cc(F)c(F)c(OC)c4)cc3)C[C@H]2O)c2cc(CC(F)(F)F)sc2n1` [Example 82, (1R,2S,4R)-4-{[(3′,4′-difluoro-5′-methoxy[1,1′-biphenyl]-4-yl)methyl]amino}-2-{methyl[2-(methylamino)-6-(2,2,2-trifluoroethyl)thieno[2,3-d]pyrimidin-4-yl]amino}cyclopentan-1-ol hydrochloride], the GI50 in assay [1] (setting [7]) was found to be 0.112 µM; in assay [1] (setting [4]), 0.0505 µM; in assay [2] (setting [8]) it was 1.41 µM; in assay [2] (setting [5]), 1.33 µM; in assay [3] (setting [9]), 0.521 µM; in assay [3] (setting [6]) it was 0.177 µM.

For `CN(c1ncnc2sc(CC(F)(F)F)cc12)[C@H]1C[C@@H](NCc2ccc(-c3cncc4ccccc34)cc2)C[C@H]1O` [Example 83, (1R,2S,4R)-4-({[4-(isoquinolin-4-yl)phenyl]methyl}amino)-2-{methyl[6-(2,2,2-trifluoroethyl)thieno[2,3-d]pyrimidin-4-yl]amino}cyclopentan-1-ol hydrochloride], the GI50 was 0.345 µM in assay [1] (setting [7]); 0.179 µM in assay [1] (setting [4]); 2.38 µM in assay [2] (setting [8]); 1.52 µM in assay [2] (setting [5]); 1.45 µM in assay [3] (setting [9]); 0.646 µM in assay [3] (setting [6]).

As to `COc1cc(-c2ccc(CN[C@H]3C[C@@H](O)[C@@H](N(C)c4ncnc5sc(CC(F)(F)F)cc45)C3)cc2)nnc1Cl` [Example 84, (1R,2S,4R)-4-({[4-(6-chloro-5-methoxypyridazin-3-yl)phenyl]methyl}amino)-2-{methyl[6-(2,2,2-trifluoroethyl)thieno[2,3-d]pyrimidin-4-yl]amino}cyclopentan-1-ol hydrochloride], the GI50 in assay [1] (setting [7]) was 0.0235 µM; in assay [1] (setting [4]), less than 0.0195 µM; in assay [2] (setting [8]) it was 5.28 µM; in assay [2] (setting [5]) it was 3.39 µM; in assay [3] (setting [9]), 0.652 µM; in assay [3] (setting [6]) it was 0.0455 µM.

Take `CN(c1ncnc2sc(CC(F)(F)F)cc12)[C@H]1C[C@@H](NCc2ccc(-c3cc(F)cc4c3cnn4S(C)(=O)=O)cc2)C[C@H]1O` [Example 85, (1R,2S,4R)-4-[({4-[6-fluoro-1-(methanesulfonyl)-1H-indazol-4-yl]phenyl}methyl)amino]-2-{methyl[6-(2,2,2-trifluoroethyl)thieno[2,3-d]pyrimidin-4-yl]amino}cyclopentan-1-ol hydrochloride]: the GI50 stood at 0.137 µM in assay [1] (setting [7]); 0.0749 µM in assay [1] (setting [4]); 2.04 µM in assay [2] (setting [8]); 0.921 µM in assay [2] (setting [5]); 0.742 µM in assay [3] (setting [9]); 0.24 µM in assay [3] (setting [6]).

As to `CN(c1ncnc2sc(CC(F)(F)F)cc12)[C@H]1C[C@@H](NCc2ccc(-c3cccc(CS(C)(=O)=O)c3)cc2)C[C@H]1O` [Example 86, (1R,2S,4R)-4-[({3′-[(methanesulfonyl)methyl][1,1′biphenyl]-4-yl}methyl)amino]-2-{methyl[6-(2,2,2 trifluoroethyl)thieno[2,3-d]pyrimidin-4-yl]amino}cyclopentan-1-ol hydrochloride], the GI50 in assay [1] (setting [7]) came out at 0.608 µM; in assay [1] (setting [4]), 0.372 µM; in assay [2] (setting [8]), 3.97 µM; in assay [2] (setting [5]), 1.96 µM; in assay [3] (setting [9]), 1.78 µM; in assay [3] (setting [6]), 0.949 µM.

For the molecule `CNc1nc(N(C)[C@H]2C[C@@H](NCc3ccc(-c4ccc(F)c(OC)c4F)cc3)C[C@H]2O)c2cc(CC(F)(F)F)sc2n1` [Example 87, (1R,2S,4R)-4-{[(2′,4′-difluoro-3′-methoxy[1,1′-biphenyl]-4-yl)methyl]amino}-2-{methyl[2-(methylamino)-6-(2,2,2-trifluoroethyl)thieno[2,3-d]pyrimidin-4-yl]amino}cyclopentan-1-ol hydrochloride], the GI50 in assay [1] (setting [7]) amounted to 0.165 µM; in assay [1] (setting [4]), 0.114 µM; in assay [2] (setting [8]), 1.76 µM; in assay [2] (setting [5]), 1.23 µM; in assay [3] (setting [9]) it was 0.803 µM; in assay [3] (setting [6]) it was 0.423 µM.

Consider `COc1cc(-c2ccc(CN[C@H]3C[C@@H](O)[C@@H](N(C)c4ncnc5sc(CC(F)(F)F)cc45)C3)cc2)cnc1C(F)(F)F` [Example 88, (1R,2S,4R)-4-[({4-[5-methoxy-6-(trifluoromethyl)pyridin-3-yl]phenyl}methyl)amino]-2-{methyl[6-(2,2,2-trifluoroethyl)thieno[2,3-d]pyrimidin-4-yl]amino}cyclopentan-1-ol hydrochloride], for which the GI50 in assay [1] (setting [7]) is 0.446 µM; in assay [1] (setting [4]), 0.327 µM; in assay [2] (setting [8]), 2.01 µM; in assay [2] (setting [5]), 1.76 µM; in assay [3] (setting [9]) it was 1.48 µM; in assay [3] (setting [6]) it was 1.01 µM.

In the case of `COc1cc(-c2ccc(CN[C@H]3C[C@@H](O)[C@@H](N(C)c4ncncc4Oc4ccc(F)cc4C(=O)N(C(C)C)C(C)C)C3)cc2)nnc1OC` [Example 89, 2-[(4-{[(1S,2R,4R)-4({[4-(5,6-dimethoxypyridazin-3-yl)phenyl]methyl}amino)-2-hydroxycyclopentyl](methyl)amino}pyrimidin-5-yl)oxy]-5-fluoro-N,N-di(propan-2-yl)benzamide hydrochloride], the GI50 in assay [1] (setting [7]) is 0.0761 µM; in assay [1] (setting [4]), 0.0467 µM; in assay [2] (setting [8]) it was greater than 10 µM; in assay [2] (setting [5]) it was greater than 10 µM; in assay [3] (setting [9]), 7.18 µM; in assay [3] (setting [6]) it was 0.185 µM.

By GI50 is commonly meant the concentration giving 50% growth inhibition.
